# Results: ChEMBL document CHEMBL3351726, “Studies examining the relationship between the chemical structure of protoxin II and its activity on voltage gated sodium channels” (J Med Chem, 2014)
# By UniProt entry, the sequences of proteins in these tests, tags left out.
# UniProt Q15858, whole entry: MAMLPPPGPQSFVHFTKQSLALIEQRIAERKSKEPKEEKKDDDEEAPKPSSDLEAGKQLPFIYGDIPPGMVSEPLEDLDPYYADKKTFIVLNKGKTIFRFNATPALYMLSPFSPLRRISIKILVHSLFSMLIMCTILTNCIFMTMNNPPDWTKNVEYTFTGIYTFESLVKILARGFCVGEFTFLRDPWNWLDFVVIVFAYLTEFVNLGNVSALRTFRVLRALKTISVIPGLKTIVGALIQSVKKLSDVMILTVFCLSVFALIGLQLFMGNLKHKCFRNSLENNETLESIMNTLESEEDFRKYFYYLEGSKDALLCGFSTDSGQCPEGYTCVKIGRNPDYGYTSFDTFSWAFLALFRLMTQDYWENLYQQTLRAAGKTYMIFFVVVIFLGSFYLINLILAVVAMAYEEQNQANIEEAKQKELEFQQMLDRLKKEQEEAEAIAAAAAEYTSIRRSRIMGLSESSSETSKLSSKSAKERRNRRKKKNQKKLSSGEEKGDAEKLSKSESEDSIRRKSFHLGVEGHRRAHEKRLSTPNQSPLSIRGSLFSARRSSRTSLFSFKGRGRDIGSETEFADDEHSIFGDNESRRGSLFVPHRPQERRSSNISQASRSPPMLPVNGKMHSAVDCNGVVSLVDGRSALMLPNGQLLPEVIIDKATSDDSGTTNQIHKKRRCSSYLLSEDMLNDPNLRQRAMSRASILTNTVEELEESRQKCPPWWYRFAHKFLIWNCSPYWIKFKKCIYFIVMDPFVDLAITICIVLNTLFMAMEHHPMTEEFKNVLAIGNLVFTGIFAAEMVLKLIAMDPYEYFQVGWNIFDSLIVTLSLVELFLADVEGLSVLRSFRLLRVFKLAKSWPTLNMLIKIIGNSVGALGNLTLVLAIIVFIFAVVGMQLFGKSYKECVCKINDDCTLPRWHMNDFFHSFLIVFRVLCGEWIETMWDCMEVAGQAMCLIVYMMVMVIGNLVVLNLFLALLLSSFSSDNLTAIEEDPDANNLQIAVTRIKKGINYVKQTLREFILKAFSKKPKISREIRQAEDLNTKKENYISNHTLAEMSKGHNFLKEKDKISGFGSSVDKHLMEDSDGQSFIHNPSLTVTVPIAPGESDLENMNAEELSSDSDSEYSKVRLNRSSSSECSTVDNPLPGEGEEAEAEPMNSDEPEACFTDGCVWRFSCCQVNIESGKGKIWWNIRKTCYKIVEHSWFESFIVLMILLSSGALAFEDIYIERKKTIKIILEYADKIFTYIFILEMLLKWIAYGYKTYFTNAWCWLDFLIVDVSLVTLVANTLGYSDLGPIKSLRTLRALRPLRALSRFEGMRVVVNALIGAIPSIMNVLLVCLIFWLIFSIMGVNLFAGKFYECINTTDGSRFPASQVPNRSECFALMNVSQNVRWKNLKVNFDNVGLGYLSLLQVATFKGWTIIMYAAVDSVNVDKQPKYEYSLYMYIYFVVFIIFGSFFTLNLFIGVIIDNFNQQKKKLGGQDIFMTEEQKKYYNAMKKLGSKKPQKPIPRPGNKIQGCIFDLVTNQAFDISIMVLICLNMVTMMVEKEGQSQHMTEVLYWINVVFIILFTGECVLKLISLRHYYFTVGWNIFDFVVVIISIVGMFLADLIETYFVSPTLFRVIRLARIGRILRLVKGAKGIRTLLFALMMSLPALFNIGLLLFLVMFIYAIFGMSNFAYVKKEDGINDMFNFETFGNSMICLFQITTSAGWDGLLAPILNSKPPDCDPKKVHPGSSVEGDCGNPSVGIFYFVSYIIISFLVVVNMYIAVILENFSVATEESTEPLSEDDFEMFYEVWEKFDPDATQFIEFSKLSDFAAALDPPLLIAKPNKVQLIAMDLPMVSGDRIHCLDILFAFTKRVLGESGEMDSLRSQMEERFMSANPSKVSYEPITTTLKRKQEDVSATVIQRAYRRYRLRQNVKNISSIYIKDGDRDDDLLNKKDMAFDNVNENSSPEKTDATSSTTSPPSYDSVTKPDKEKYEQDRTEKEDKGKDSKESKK
# Target: Sodium channel protein type 9 subunit alpha (Homo sapiens, UniProt Q15858)
# Test: Inhibition of human Nav1.7 expressed in HEK-293 cells at -130 to -110 mV holding potential by whole-cell voltage clamp analysis
# Assay type: cell-based, HEK293
compound,measurement,value
CSCC[C@@H]1NC(=O)CNC(=O)[C@H](CCC(=O)O)NC(=O)[C@@H]2CSSC[C@H](NC(=O)[C@@H](N)Cc3ccc(O)cc3)C(=O)N[C@@H](CCC(N)=O)C(=O)N[C@@H](CCCCN)C(=O)N[C@@H](Cc3c[nH]c4ccccc34)C(=O)N[C@@H](CCSC)C(=O)N[C@@H](Cc3c[nH]c4ccccc34)C(=O)N[C@@H]([C@@H](C)O)C(=O)N[C@H]3CSSC[C@H](NC(=O)[C@H](C(C)C)NC1=O)C(=O)N[C@@H](CCCNC(=N)N)C(=O)N[C@@H](CC(C)C)C(=O)N[C@@H](Cc1c[nH]c4ccccc14)C(=O)N[C@H](C(=O)N[C@@H](CCCCN)C(=O)N[C@@H](CCCCN)C(=O)N[C@@H](CCCCN)C(=O)N[C@@H](CC(C)C)C(=O)N[C@@H](Cc1c[nH]c4ccccc14)C(N)=O)CSSC[C@H](NC(=O)[C@H](CCCCN)NC(=O)[C@H](CCCNC(=N)N)NC(=O)[C@H](CCC(=O)O)NC(=O)[C@H](CO)NC(=O)[C@H](CC(=O)O)NC3=O)C(=O)N2,IC50,0.23 nM
